# AlphaSeq binding of Ab-91 heavy chain variants to a spike HR2 peptide

The target is the same throughout: PDVDLGDISGINAS, from the HR2 region of SARS-CoV-2 spike.

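Library AAYL51 holds single substitutions and randomly drawn double and triple substitutions in the CDRs. In AlphaSeq, yeast of one mating type display the scFv and yeast of the other type display the target. Pairs that bind mate more often; barcode pairs of the diploids are counted by sequencing. Each replicate has its own calibration line, from reference interactions of the BCL2 family. Each pool was mated in three replicate cultures.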

Parent: Ab-91, a human scFv built as VL, three GGGGS repeats, VH. Only the CDRs of the heavy chain vary.
VL: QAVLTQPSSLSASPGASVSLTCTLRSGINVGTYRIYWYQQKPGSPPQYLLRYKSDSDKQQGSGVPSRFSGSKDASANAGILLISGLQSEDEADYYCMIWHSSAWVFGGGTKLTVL
VH: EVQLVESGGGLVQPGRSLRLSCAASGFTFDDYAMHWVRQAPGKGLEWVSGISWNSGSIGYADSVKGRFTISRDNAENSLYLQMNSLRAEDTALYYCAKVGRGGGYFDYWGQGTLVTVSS

Substitutions are numbered in sequence along the VH above, starting at 1 (not Kabat).
Affinities are written as log10 Kd with Kd in nM; a lower number is a better binder.
Replicates are averaged; those with no signal do not enter the mean.
"n.d." marks a missing value. The strain was present, yet no cells mated with the target were sequenced in that replicate, which points to weak or no binding.
Background: pairings of library AAYL51 with three empty control strains gave a value in 21% of cases (median 4.54, 5th percentile 3.26). Values in that range, when seen in few replicates, are hard to tell from nonspecific mating. Also given: how often the same scFv was detected with the empty control strains, with their mean in brackets.
For reference, the parent read 1.86 as the reference entry and 0.88 as a member of this library.

| # | changes | log10 Kd, replicates | mean log10 Kd (nM) | signal with controls |
|---|---|---|---|---|
| 1 | G56L+S57G+G100K | n.d. / n.d. / 2.41 | 2.41 | 1 of 9 (3.09) |
| 2 | T28G+I51E | n.d. / 5.83 / n.d. | 5.83 | 1 of 9 (2.81) |
| 3 | N54H+S57L+G59K | n.d. / n.d. / 3.58 | 3.58 | 1 of 9 (3.60) |
| 4 | T28F+I51T+K65T | 4.52 / n.d. / n.d. | 4.52 | 0 of 9 |
| 5 | S52C+G56D+Y105N | 5.25 / 5.59 / 5.10 | 5.31 | 6 of 9 (5.02) |
| 6 | G26M+S52L+S55G | n.d. / n.d. / n.d. | n.d. | 1 of 9 (3.24) |
| 7 | S57T+A61R+S63D | 2.66 / 2.80 / 3.61 | 3.02 | 4 of 9 (5.63) |
| 8 | S55F+A61N+Y108G | 6.05 / n.d. / 4.83 | 5.44 | 3 of 9 (4.35) |
| 9 | D31W+G59W | n.d. / n.d. / n.d. | n.d. | 0 of 9 |
| 10 | F27G+D62C+D107G | n.d. / n.d. / n.d. | n.d. | 1 of 9 (3.97) |
| 11 | I51L+G56F | 5.56 / 5.28 / 4.20 | 5.01 | 2 of 9 (3.92) |
| 12 | D31Y+S63G+V64L | 1.49 / 1.64 / 1.11 | 1.42 | 0 of 9 |
| 13 | G56V+K65I+R101A | 1.03 / 1.17 / 0.48 | 0.89 | 3 of 9 (4.86) |
| 14 | F29C+N54F | n.d. / n.d. / n.d. | n.d. | 1 of 9 (3.89) |
| 15 | F29H+S57L+V99I | n.d. / n.d. / n.d. | n.d. | 0 of 9 |
| 16 | T28N+G103D+Y105S | 3.98 / n.d. / n.d. | 3.98 | 3 of 9 (4.10) |
| 17 | G100D+Y105V+Y108V | n.d. / n.d. / n.d. | n.d. | 0 of 9 |
| 18 | D30M+G50A+G59R | n.d. / n.d. / 4.46 | 4.46 | 4 of 9 (4.49) |
| 19 | D31G+I58D+G100R | 1.30 / 1.31 / 1.46 | 1.36 | 0 of 9 |
| 20 | D30W+G56C+D107V | n.d. / n.d. / n.d. | n.d. | 0 of 9 |
| 21 | G26D+N54Q+S63P | n.d. / 6.09 / n.d. | 6.09 | 2 of 9 (5.04) |
| 22 | T28F+Y32T+G100C | n.d. / n.d. / n.d. | n.d. | 3 of 9 (4.25) |
| 23 | Y32A+D107R+Y108M | 3.37 / 3.12 / 2.49 | 2.99 | 1 of 9 (4.78) |
| 24 | G26C+K65A | n.d. / 4.39 / 4.39 | 4.39 | 4 of 9 (4.58) |
| 25 | F29Y | 2.92 / 3.29 / 3.12 | 3.11 | 5 of 9 (4.17) |
| 26 | H35R+S52G+S55K | n.d. / n.d. / n.d. | n.d. | 1 of 9 (4.64) |
| 27 | S52H+G59T+A61T | n.d. / n.d. / n.d. | n.d. | 4 of 9 (4.64) |
| 28 | A61N+R101M | 2.72 / 3.47 / n.d. | 3.09 | 0 of 9 |
| 29 | Y32W+A61Q+G104N | n.d. / 4.13 / n.d. | 4.13 | 0 of 9 |
| 30 | N54S+S55V+D62A | n.d. / n.d. / n.d. | n.d. | 1 of 9 (3.76) |
| 31 | Y32V+I51A+G104H | n.d. / 4.62 / n.d. | 4.62 | 0 of 9 |
| 32 | F27D+H35Q+R101L | 4.41 / 5.50 / n.d. | 4.96 | 3 of 9 (4.86) |
| 33 | D30A+G104M | 1.82 / 1.89 / 1.70 | 1.81 | 1 of 9 (4.14) |
| 34 | I58T+Y105V | 4.88 / 4.34 / 5.18 | 4.80 | 9 of 9 (5.10) |
| 35 | G56H+D62Q | 3.48 / 4.50 / 2.61 | 3.53 | 2 of 9 (4.33) |
| 36 | H35Q+D62F+F106S | n.d. / n.d. / n.d. | n.d. | 0 of 9 |
| 37 | G59H+V99H+F106T | 4.39 / n.d. / n.d. | 4.39 | 0 of 9 |

Excerpt, the first 3 entries:

| changes | log10 Kd, replicates | mean log10 Kd (nM) | signal with controls |
|---|---|---|---|
| G56L+S57G+G100K | n.d. / n.d. / 2.41 | 2.41 | 1 of 9 (3.09) |
| T28G+I51E | n.d. / 5.83 / n.d. | 5.83 | 1 of 9 (2.81) |
| N54H+S57L+G59K | n.d. / n.d. / 3.58 | 3.58 | 1 of 9 (3.60) |

Data: MIT Lincoln Laboratory AlphaSeq set, Engelhart et al. 2022, doi:10.1038/s41597-022-01779-4, as distributed in FLAb.